Source: patent US20250205200A1, “5-METHOXY-N,N-[…][…] THE TREATMENT OF […]” (GH RESEARCH IRELAND LIMITED, priority 2022, published 2025)

Chains of the proteins cited; added tags and fusions are not shown.
UniProt P28223, whole entry: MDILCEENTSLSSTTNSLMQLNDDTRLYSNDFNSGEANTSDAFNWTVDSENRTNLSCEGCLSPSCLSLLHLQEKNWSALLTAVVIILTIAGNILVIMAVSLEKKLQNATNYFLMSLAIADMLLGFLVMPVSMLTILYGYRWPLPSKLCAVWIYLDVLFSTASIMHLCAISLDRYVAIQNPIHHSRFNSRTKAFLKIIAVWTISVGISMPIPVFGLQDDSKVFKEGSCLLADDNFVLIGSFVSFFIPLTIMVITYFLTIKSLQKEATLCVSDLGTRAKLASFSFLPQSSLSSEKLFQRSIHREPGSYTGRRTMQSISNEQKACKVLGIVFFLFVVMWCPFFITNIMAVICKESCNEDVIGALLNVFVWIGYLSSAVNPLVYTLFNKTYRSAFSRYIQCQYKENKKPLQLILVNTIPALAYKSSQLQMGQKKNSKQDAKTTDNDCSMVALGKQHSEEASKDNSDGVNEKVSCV

Assays:
human hepatocytes [1] = test: Metabolite identification of 5-MeO-DMT in human hepatocytes; assay type: in vitro ADME; settings: 5-MeO-DMT free base 10 μM incubated up to 120 minutes
human hepatocytes [2] = test: Metabolic stability in Hμrel human hepatocyte co-culture assay; assay type: in vitro ADME
5-HT2A receptors = molecular target: T1, 5-HT2A receptors (Homo sapiens, UniProt P28223); test: Radioligand binding ([3H]MDL-100,907) to 5-HT2A receptors in post-mortem human frontal cortex membranes; settings: frontal cortical membranes, read-out: Dissociation constant (Kd) for 5-HT2A receptors
T1 construct: 5-HT1A and 5-HT2A receptors in post-mortem human brain tissue from the hippocampus and frontal cortex, respectively; tissue Edinburgh Sudden Death Brain Bank; host or cells: post-mortem human frontal cortex membranes

## 5-Methoxyindole acetic acid [5-Methoxyindole acetic acid (5-MIAA)]
Human hepatocytes [1]
  Relative proportion of compounds identified: 61%
Human hepatocytes [2]; 1 μM Hepatocytes, 1 h
  Relative LC/MS peak area remaining: 98%
Human hepatocytes [2]; 1 μM Hepatocytes, 2 h
  Relative LC/MS peak area remaining: 100%
Human hepatocytes [2]; 1 μM Hepatocytes, 4 h
  Relative LC/MS peak area remaining: 99%
Human hepatocytes [2]; 1 μM Hepatocytes, 8 h
  Relative LC/MS peak area remaining: 95%
Human hepatocytes [2]; 1 μM Hepatocytes, 24 h
  Relative LC/MS peak area remaining: 99%
Human hepatocytes [2]; 1 μM Hepatocytes, 48 h
  Relative LC/MS peak area remaining: 88%
Human hepatocytes [2]; 1 μM Hepatocytes, 72 h
  Relative LC/MS peak area remaining: 82%
Human hepatocytes [2]; 1 μM Stromal cells, 4 h
  Relative LC/MS peak area remaining: 103%
Human hepatocytes [2]; 1 μM Stromal cells, 8 h
  Relative LC/MS peak area remaining: 107%
Human hepatocytes [2]; 1 μM Stromal cells, 24 h
  Relative LC/MS peak area remaining: 108%
Human hepatocytes [2]; 1 μM Stromal cells, 48 h
  Relative LC/MS peak area remaining: 111%
Human hepatocytes [2]; 1 μM Stromal cells, 72 h
  Relative LC/MS peak area remaining: 135%
Human hepatocytes [2]; 10 μM Hepatocytes, 1 h
  Relative LC/MS peak area remaining: 97%
Human hepatocytes [2]; 10 μM Hepatocytes, 2 h
  Relative LC/MS peak area remaining: 100%
Human hepatocytes [2]; 10 μM Hepatocytes, 4 h
  Relative LC/MS peak area remaining: 103%
Human hepatocytes [2]; 10 μM Hepatocytes, 8 h
  Relative LC/MS peak area remaining: 96%
Human hepatocytes [2]; 10 μM Hepatocytes, 24 h
  Relative LC/MS peak area remaining: 96%
Human hepatocytes [2]; 10 μM Hepatocytes, 48 h
  Relative LC/MS peak area remaining: 86%
Human hepatocytes [2]; 10 μM Hepatocytes, 72 h
  Relative LC/MS peak area remaining: 75%
Human hepatocytes [2]; 10 μM Stromal cells, 4 h
  Relative LC/MS peak area remaining: 101%
Human hepatocytes [2]; 10 μM Stromal cells, 8 h
  Relative LC/MS peak area remaining: 106%
Human hepatocytes [2]; 10 μM Stromal cells, 24 h
  Relative LC/MS peak area remaining: 97%
Human hepatocytes [2]; 10 μM Stromal cells, 48 h
  Relative LC/MS peak area remaining: 103%
Human hepatocytes [2]; 10 μM Stromal cells, 72 h
  Relative LC/MS peak area remaining: 115%

## [^3H]MDL-100,907
5-HT2A receptors; donor 1 of 3
  Kd: 0.11 nM
5-HT2A receptors; donor 2 of 3
  Kd: 0.08 nM
5-HT2A receptors; donor 3 of 3
  Kd: 0.08 nM

Read-outs that look alike come from different tables or passages of the source.
